The text below walks through data of patent publication US20210315238A1.

The target in one data set is T1, 33-mer peptide.
T1 chain: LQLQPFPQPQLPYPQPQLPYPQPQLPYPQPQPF

Another data set has as its target T2, 26-mer peptide.
T2 chain: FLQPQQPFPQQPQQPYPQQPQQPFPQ

B1: MorPro1 (protein)
chain: VRVGNLLEPPMPPPFAIEDIEDIDPKQLTKRKISSGFFDQYIDHSNPSLGTFRQKFWWSDEFYKGPGSPVILFNPGESRADIYTGYLTNLTVPGMYAQAVGAAVVMLEHRYWGESSPFANLSTKNMQYLTLNNSISDTTRFARQVKLPFDTSGATNAPNAPWVFVGGSYPGALAGWVESVAPGTFWAYHASSAVVQDIGDYWRYFSPINEGMPKNCSADIGRVVEHIDKVLGTGSDSDKSALQTAFGLGSLEHDDFVETLANGPYLWQGIDFSTGYSDFFKFCDYVENVPPKAATRVPPGVDGVGLEKALTGYQDWIKKEYLPTACDSLGYPKGDLGCLSSHNFSAPFYRDQTVLNPGNRQWFWFLCNEPFKFWQNGAPKGEPSIVSRIIGSKYFESQCALWFPDEPREGGGVYTYGIAEGKDVASVNKFTGGWDHTDTKRLLWVNGQFDPWLHATVSSPSRPGGPLQSTDKAPVLVIPGGVHCTDLIIRNGDANEGARKVQSQAREIIKKWVSEFPKSGKSP
In the data set with 33-mer peptide, B1 came in with a Residual 33-mer peptide (mg/mL) after 0.5 ppm protease, 10 min 40 C, HPLC of 0.44 mg/mL; a Residual 33-mer peptide (mg/mL) after 1 ppm protease, 10 min 40 C, HPLC of 0.26 mg/mL; a Residual 33-mer peptide (mg/mL) after 2 ppm protease, 10 min 40 C, HPLC of 0.12 mg/mL. In the data set with 26-mer peptide, this protein had a Residual 26-mer peptide (mg/mL) after 0.5 ppm protease, 10 min 40 C, HPLC of 0.24 mg/mL and a Residual 26-mer peptide (mg/mL) after 1 ppm protease, 10 min 40 C, HPLC of 0.07 mg/mL.

B2: CpoPro1 (protein)
chain: FGPRWARYQNDLHLAAMLGMDADSVLTNRSSLASAIDSLAETSAVVAEYANIPIDHRNPGRMYRNRYWVNDQYYQPGGPVVIFDTGETNGQAFADYYLVDPTSYIVQLLREFHGVGLVWEHRYYGESLPYPVNGQTSAAQFQYLTLEQALQDLPYFARTFRRPRLPNADLTPRSTPWIMVGGSYPGMRAAFSRLKYPDTIFAAFSSSAPAQARIDMSVYYEQVYRGLVAYGYGNCTRDVNAAYRYIDAQLANPSTAAQIKRQFLGPGAEQNSNGDFTAVLLYNWATWQSFGANGPAGQFCNWLETDQYGRVAPAEGWAPSRGARSVVDRWAAWPGLSRAINSIFETNCNCPEETCSCDLSAPPADPLAISWSWQFCSQFGYFQYQNPRPHEIASRYQTEAYIQDNCYRQFPDGVSSGHLPRRPRADATNNYTGGWNMRPSNVFHGAGQYDPWTPLTVLSQEPWGPRRRVTTQIPACNQEQEAVFGVLLPNAEHVYDLQTSYQPGEVSRQLFRRALHQWLPCFRRRNSTADHD
B2: in the data set with 33-mer peptide, the Residual 33-mer peptide (mg/mL) after 0.5 ppm protease, 10 min 40 C, HPLC worked out at 0.18 mg/mL; the Residual 33-mer peptide (mg/mL) after 1 ppm protease, 10 min 40 C, HPLC was found to be 0.02 mg/mL; the Residual 33-mer peptide (mg/mL) after 2 ppm protease, 10 min 40 C, HPLC was found to be 0 mg/mL. In the data set with 26-mer peptide, the Residual 26-mer peptide (mg/mL) after 0.5 ppm protease, 10 min 40 C, HPLC was 0.07 mg/mL; the Residual 26-mer peptide (mg/mL) after 1 ppm protease, 10 min 40 C, HPLC turned out to be 0.01 mg/mL; the Residual 26-mer peptide (mg/mL) after 2 ppm protease, 10 min 40 C, HPLC stood at 0 mg/mL.
